Patent US10934282B2, “Heteroaromatic modulators of the retinoid-related orphan receptor gamma” (LEO PHARMA A/S, priority 2016, dated 2021)

Protein sequences, listed by entry. Tags and fused reporters are not part of them. Chains listed by the source or under a name are the forms on record and can include a tag or linker. Residues count along the entry.
UniProt P51449, 265-518 with tags or gaps: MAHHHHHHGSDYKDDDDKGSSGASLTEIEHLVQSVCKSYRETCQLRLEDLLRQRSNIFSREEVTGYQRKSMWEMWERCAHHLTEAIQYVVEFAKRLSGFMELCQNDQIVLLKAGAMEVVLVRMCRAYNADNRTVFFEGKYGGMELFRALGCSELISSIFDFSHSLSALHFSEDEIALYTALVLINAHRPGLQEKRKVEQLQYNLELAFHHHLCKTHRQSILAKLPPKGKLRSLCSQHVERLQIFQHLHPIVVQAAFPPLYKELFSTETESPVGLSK

Experiments:
[1] = tested on: IL-17A in Human peripheral mononuclear cells; experiment: Human PBMC IL-17A assay; format: cell-based; conditions: read-out: Human PBMC IL-17a; EC50, antiCD3/antiCD28-coated beads, 3 days, alpha-LISA
[2] = tested on: IL-17A levels in human peripheral blood; experiment: Human whole blood IL-17A assay; format: cell-based; conditions: read-out: Human Whole blood IL-17A; EC50, Staphylococcus enterotoxin B 300 ng/mL, 3 days, alpha-LISA
[3] = biological target: human RORgt nuclear receptor (RORgT ligand binding domain protein) (Homo sapiens, UniProt P51449); experiment: ROR-gamma binding assay (Scintillation Proximity Assay, displacement of [3H]-25-hydroxycholesterol); conditions: read-out: ROR-gamma binding; EC50, SPA, 15 nM [3H]-25-Hydroxycholesterol, RORgT LBD 12 nM

## Cc1c(CN2CCN(C(=O)OC(C)C)[C@@H](C)C2)cc(Cl)cc1Nc1nnc(C2COCCN2)o1 (stereo partly drawn)
[1]
  EC50: 59.8 nM
[2]
  EC50: 270 nM
[3]
  EC50: 55.9 nM
